In the library only some 0.92% were active in any assay of this set; here they are far more common.
GALK inhibitor = inhibitors of human galactokinase; P51570; Purified GALK, Kinase-Glo residual ATP luminescence; Potency, µM (titrated, usually from 57.5 µM), inactives show top-dose activity change, negative = inhibition, usual class: inhibitors; 270,000 tested, 0.007% active; note: potency is the fitted concentration of half-maximal effect; % is set by controls: 0 for no effect and ±100 for the full control effect
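Kinase-Glo Plus luminescence measured ATP left after a 1 h room-temperature reaction. The reaction used 5 nM GALK, 100 uM galactose and 35 uM ATP at pH 8.0 (20 mM HEPES, 5 mM MgCl2, 60 mM NaCl, 1 mM DTT, 0.01% BSA).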
FBPA coupling cs = counter-screen for Giardia aldolase inhibitors: coupling enzyme system. coupling enzyme system counterscreen, AmpLite Red fluorescence. activity change, negative = inhibition, % at 58.2 µM, hits read low. 290,000 tested, 0.67% active. AID 2472; in the data active = activity change below about -30%; note: % is set by controls: 0 for no effect and ±100 for the full control effect
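Coupling enzymes only (glyceraldehyde-3-phosphate) + compound, at 57.5 uM final, 10 min RT; add substrate/coupling/AmpLite Red mix, 20 min RT; fluorescence ex 525/em 598 nm. Actives flag coupling-system interference.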
B2AR arrestin = agonists driving beta-arrestin recruitment to human beta2-adrenergic receptor | P07550 | beta-arrestin recruitment to beta2AR, cell-based reporter | Potency, µM (doses to about 46.1 µM), inactives show top-dose activation, most hits filed as activators | 330,000 tested, 0.02% active;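 note: potency is the fitted concentration of half-maximal effect; 0% = DMSO controls and full agonism = EC100 isoproterenol or metaproterenol; nearly all actives have a fitted effect of over 65% in size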
miR-21 FLuc = raises the signal of a miR-21 reporter | AID 2288 | 340,000 tested, under 10 active | Potency, µM (series often up to 38.3 µM), without a hit: at the highest dose reporter change, positive = more light | HeLa miR-21 FLuc reporter, luciferase, 48 h; active = well fitted rising curve with a large enough effect; inconclusive = small, poorly fitted or top-dose-only effect; inactive = no such curve, though single readings can be large or run the other way;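 further: % of control where 0% means no effect; miR-21 action dims this reporter so a rising signal means less miR-21 action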
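HeLa miR-21-FLuc reporter line, endogenous miR-21; 2000 cells/well in DMEM/10% FBS; compound titration up to ~40uM final, 48 h, 37 degree Celsius; luciferase detection reagent, 15 min lysis, CCD luminescence.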
Giardia kill = Giardia lamblia killing; Giardia lamblia trophozoite viability; activity change, % at 7.66 µM, hits read low; 340,000 tested, 0.15% active; in the data active = activity change below about -80%; inconclusive = between about -30% and that limit;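 note: parasites exposed to compound for two days anaerobically before the ATP read; % is set by controls: 0 for no effect and ±100 for the full control effect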
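Each well holds 100 Giardia trophozoites and compound. After two days (48 hrs) at 37 deg C in anaerobic conditions, ATP is quantified by luminescence.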
uPA surface inh = cell surface uPA generation inhibition | cell surface uPA generation assay, qHTS | Potency, µM (highest dose often 38.3 µM), without a hit: at the highest dose activity change, negative = inhibition, hits mostly inhibitors | 330,000 tested, 0.31% active; active = well fitted inhibition curve with a large enough effect; inconclusive = small, poorly fitted or top-dose-only effect; inactive = no such curve, though single readings can be large or run the other way; tested in mouse RAW 264.7 cells; note: potency is the fitted concentration of half-maximal effect; % is set by controls: 0 for no effect and ±100 for the full control effect; nearly all actives have a fitted effect of over 55% in size
Numbers without * were called inactive; ? = inconclusive; · = no result given. Unless noted, calls come from the whole dose curve; as a rule, active = well fitted curve in the direction sought with a large enough effect; inconclusive = small, poorly fitted or top-dose-only effect, or another doubt; inactive = no such curve, though single readings can be large; an effect the other way counts as inactive or inconclusive.

molecule | GALK inhibitor | FBPA coupling cs | B2AR arrestin | miR-21 FLuc | Giardia kill | uPA surface inh
c1ccc2sc(-c3ccncc3)nc2c1 | -3% | 4 | 0% | -70% | 21 | -6%
CC1(C)OC(=O)C2(Cc3ccc(Cl)cc3N3CCCCC32)C(=O)O1 (stereo unspecified) | · | · | · | · | 8 | ·
CCOC(=O)c1cnc2cc(C(F)(F)F)ccc2c1N1CCN(c2cccc(Cl)c2)CC1 | · | · | · | -7% | · | ·
Cc1ccc(Nc2nc(N)nc(N)c2S(=O)(=O)c2ccccc2)cc1 | · | · | · | 18% | · | ·
OCCCCNc1cccc2ccccc12 | -3% | -41* | 0% | -5% | -2 | 2%
CCCN1CNc2c(c(=O)[nH]c(=S)n2CCc2cccc(OC)c2)C1 | · | · | · | · | 6 | ·
COc1cccc(Cn2c(=O)c(-c3cccs3)nc3cnc(OCc4ccccc4)nc32)c1 | · | 4 | · | · | · | ·
O=[N+]([O-])c1ccc(-c2ccn[nH]2)o1 | 3% | 0 | 0% | -1% | -85* | 1%
Nc1nc(N)nc(-c2ccc([N+](=O)[O-])o2)n1 | · | · | · | · | ? | -10%
CCc1nnc2c3ccccc3nc(Nc3ccc(C(C)=O)cc3)n12 | · | · | · | -3% | · | ·
O=C(Nc1cc(Br)ccc1O)C1CC(c2c(F)cccc2Cl)=NO1 (stereo unspecified) | -1% | 1 | -1% | 9% | -2 | 8.9µM*
Cc1cccc(CNC(=O)c2ccc(Cn3c(=O)c4cccn4c4cccnc43)cc2)c1 | · | · | · | -1% | · | ·
COc1cc2oc3ccc(C#Cc4ccc(N)cc4)cc3c(=O)c2cc1OC | · | · | · | · | 10 | -13%
COc1cc2oc3cc(C#Cc4ccc(N)cc4)ccc3c(=O)c2cc1OC | · | · | · | · | 48 | 4µM*
Nc1ccc(C#Cc2ccc3c(=O)c4ccccc4oc3c2)cc1 | · | 0 | 0% | -43% | 5 | 1.3µM*
Cc1[nH]c2ccccc2c1C(=O)CSc1ccccc1 | 3% | 1 | -1% | -51% | -21 | 1%
Cc1[nH]c2ccccc2c1C(=O)CCl | 4% | 1 | 0% | 24% | -23 | 8.9µM*
CC(=O)Nc1ccc(NC(=O)CSCc2ccccc2Cl)cc1 | · | · | · | · | 23 | -1%
C/C(=N\NC(=O)CSCc1ccccc1Cl)c1cc(O)ccc1O | 4% | -6 | 0% | 9% | -8 | 2.5µM*
COC(=O)C1=C(C)OC(N)=C(C#N)C1c1cc(OC)c(OCC(N)=O)cc1Cl (stereo unspecified) | -3% | -30* | 0% | -3% | 2 | 3%
Cc1cccc(CN2CCN(CC(=O)NCCc3ccc(Cl)cc3)C2=O)c1 | · | · | · | 0% | · | ·
COc1ccc(CNCc2c(C(=O)O)n(Cc3ccc(F)cc3)c3cc(C)ccc23)cc1OC | · | · | · | 7% | · | ·
CN(C)c1cccc2c1c(NC(=O)c1ccc(F)cc1)nn2C | -3% | -28 | 0% | -8% | -1 | 9%
CN(C)c1cccc2c1c(NC(=O)Nc1ccc(F)cc1F)nn2C | · | -29 | 0% | -4% | 9 | 11%
CN(C)c1cccc2c1c(NC(=O)Nc1ccccc1)nn2C | · | -31* | 4% | -2% | 3 | -2%
CN(C)c1cccc2c1c(NC(=O)c1ccc(Cl)cc1)nn2C | -1% | -37* | 0% | -5% | 14 | 1%
COc1cc(C(=O)N(Cc2cccnc2)c2nc3cc(C)c(C)cc3s2)cc(OC)c1OC | · | · | · | 9% | · | ·
CCOc1ccccc1NC(=O)c1c(NC(=O)C(C)Oc2ccc(Cl)cc2)sc2c1CCCCC2 (stereo unspecified) | · | · | · | 0% | · | ·
Cc1ccc2c(c1)COc1c3ccc(C(=O)NCCO)cc3nn1-2 | 0% | -4 | 0% | -71% | -12 | ?
Cc1ccc2c(c1)COc1c3ccc(C(=O)NC(C)C)cc3nn1-2 | 5% | 1 | 0% | -16% | -14 | 7.1µM*

Random excerpt: 5 compounds from above
molecule | GALK inhibitor | FBPA coupling cs | B2AR arrestin | miR-21 FLuc | Giardia kill | uPA surface inh
COc1cc2oc3cc(C#Cc4ccc(N)cc4)ccc3c(=O)c2cc1OC | · | · | · | · | 48 | 4µM*
Nc1nc(N)nc(-c2ccc([N+](=O)[O-])o2)n1 | · | · | · | · | ? | -10%
O=[N+]([O-])c1ccc(-c2ccn[nH]2)o1 | 3% | 0 | 0% | -1% | -85* | 1%
OCCCCNc1cccc2ccccc12 | -3% | -41* | 0% | -5% | -2 | 2%
Cc1cccc(CN2CCN(CC(=O)NCCc3ccc(Cl)cc3)C2=O)c1 | · | · | · | 0% | · | ·

Next structures follow:
molecule | GALK inhibitor | FBPA coupling cs | B2AR arrestin | miR-21 FLuc | Giardia kill | uPA surface inh
Cc1ccc2c(c1)COc1c3ccc(C(=O)N[C@@H](C)CO)cc3nn1-2 | -2% | -3 | 0% | -54% | -8 | 4.5µM*
C[C@@H](CO)NC(=O)c1ccc2c3n(nc2c1)-c1ccc(Cl)cc1CO3 | -2% | -1 | -1% | -35% | -8 | 4.5µM*
COc1ccc(-n2c(=O)c3sc4ccccc4c3n(CC(=O)N3CCCC3)c2=O)cc1 | · | · | · | -1% | · | ·
Cn1cnnc1SCC(=O)Nc1sc2c(c1C#N)CCCCC2 | 1% | -42* | 4% | -22% | 6 | -5%
